Experiments:
DYRK1B = DYRK1B (Homo sapiens (Human), UniProt Q9Y463); assay: DYRK1B kinase assay (HotSpot, Reaction Biology); assay type: biochemical
DYRK1A = DYRK1A (Homo sapiens (Human), UniProt Q13627); assay: DYRK1A kinase assay (HotSpot, Reaction Biology); assay type: biochemical; conditions: purified recombinant kinase, 10 μM ATP, room temperature 120 min

By UniProt entry, the sequences of proteins in these tests, tags left out.
UniProt Q9Y463, whole entry: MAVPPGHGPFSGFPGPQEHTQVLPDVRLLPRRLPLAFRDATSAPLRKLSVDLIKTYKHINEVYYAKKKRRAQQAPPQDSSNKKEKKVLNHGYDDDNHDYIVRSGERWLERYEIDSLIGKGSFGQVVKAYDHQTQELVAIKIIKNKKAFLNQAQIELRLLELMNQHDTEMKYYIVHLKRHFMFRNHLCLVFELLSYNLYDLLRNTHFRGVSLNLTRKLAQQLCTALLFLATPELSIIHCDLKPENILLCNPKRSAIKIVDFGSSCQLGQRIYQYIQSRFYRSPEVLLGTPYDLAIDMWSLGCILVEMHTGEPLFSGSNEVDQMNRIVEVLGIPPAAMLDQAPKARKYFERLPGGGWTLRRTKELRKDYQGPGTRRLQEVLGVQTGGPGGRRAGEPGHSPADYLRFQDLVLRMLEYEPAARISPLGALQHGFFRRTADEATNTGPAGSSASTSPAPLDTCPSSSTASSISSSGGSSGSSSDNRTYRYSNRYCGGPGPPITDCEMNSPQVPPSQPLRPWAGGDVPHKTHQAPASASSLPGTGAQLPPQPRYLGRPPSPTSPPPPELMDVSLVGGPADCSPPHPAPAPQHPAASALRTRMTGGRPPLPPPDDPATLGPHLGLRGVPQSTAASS

Row | Structure (SMILES) | IC50 (DYRK1B) [nM] | IC50 (DYRK1A) [nM]
1 | COC(=N)c1nc2ccc3ncnc(N(C)c4ccc(OC)c(OC)c4)c3c2s1 [Compound 52, Methyl 9-((3,4-dimethoxyphenyl)(methyl)amino)thiazolo[5,4-f]quinazoline-2-carbimidate] | 4460 | 
2 | COC(=N)c1nc2ccc3ncnc(N(C)c4ccc(OC)cc4)c3c2s1 [Compound 46, Methyl 9-((4-methoxyphenyl)(methyl)amino)thiazolo[5,4-f]quinazoline-2-carbimidate] | 84.9 | 
3 | CCN1/C(=C/C(C)=O)Sc2ccc(OC)cc21 [TG003, reference compound] |  | 24
